## CycPeptMPDB entries from one study

Source: CycPeptMPDB (Li et al. 2023), which took these values from Kelly et al. 2021, doi:10.1021/jacs.0c06115.

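Conditions beyond the assay type are not listed; see the original paper. Other peptides of the study may be missing here. Peptides that the database sets to -10, its floor, are left out.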

PAMPA is the parallel artificial membrane permeability assay, which has no cells and reads passive diffusion. Values are log10 P with P in cm/s, so -5 is more permeable than -7.

{"smiles": "CC(=O)N1CCC[C@H]1C(=O)N(C)[C@@H](CC(C)C)C(=O)N[C@@H]1C(=O)N(C)[C@@H](CC(C)C)C(=O)N(C)[C@H](CC(C)C)C(=O)N[C@H](CC(C)C)C(=O)N(C)[C@@H](C)C(=O)N[C@H](CC(C)C)C(=O)N2CCC[C@@H]2C(=O)O[C@@H]1C", "PAMPA (log10 cm/s)": "-6.64"}
{"smiles": "CC(=O)N1CCC[C@@H]1C(=O)N(C)[C@H](CC(C)C)C(=O)N[C@@H]1C(=O)N[C@H](CC(C)C)C(=O)N(C)[C@@H](CC(C)C)C(=O)N[C@H](CC(C)C)C(=O)N(C)[C@H](C)C(=O)N[C@@H](CC(C)C)C(=O)N2CCC[C@@H]2C(=O)O[C@@H]1C", "PAMPA (log10 cm/s)": "-5.61"}
{"smiles": "CC(=O)N1CCC[C@@H]1C(=O)N(C)[C@H](CC(C)C)C(=O)N[C@@H]1C(=O)N(C)[C@H](CC(C)C)C(=O)N[C@H](CC(C)C)C(=O)N(C)[C@@H](CC(C)C)C(=O)N(C)[C@@H](C)C(=O)N[C@@H](CC(C)C)C(=O)N2CCC[C@@H]2C(=O)O[C@@H]1C", "PAMPA (log10 cm/s)": "-5.08"}
{"smiles": "CC(=O)N1CCC[C@H]1C(=O)N(C)[C@@H](CC(C)C)C(=O)N[C@@H]1C(=O)N[C@@H](CC(C)C)C(=O)N[C@@H](CC(C)C)C(=O)N[C@H](CC(C)C)C(=O)N(C)[C@@H](C)C(=O)N[C@H](CC(C)C)C(=O)N2CCC[C@@H]2C(=O)O[C@@H]1C", "PAMPA (log10 cm/s)": "-7.68"}
{"smiles": "CC(=O)N1CCC[C@@H]1C(=O)N(C)[C@H](CC(C)C)C(=O)N[C@@H]1C(=O)N(C)[C@H](CC(C)C)C(=O)N(C)[C@@H](CC(C)C)C(=O)N(C)[C@H](CC(C)C)C(=O)N(C)[C@@H](C)C(=O)N[C@H](CC(C)C)C(=O)N2CCC[C@@H]2C(=O)O[C@@H]1C", "PAMPA (log10 cm/s)": "-5.11"}
{"smiles": "CC(=O)N1CCC[C@@H]1C(=O)N(C)[C@@H](CC(C)C)C(=O)N[C@@H]1C(=O)N(C)[C@@H](CC(C)C)C(=O)N[C@H](CC(C)C)C(=O)N[C@@H](CC(C)C)C(=O)N[C@@H](C)C(=O)N[C@@H](CC(C)C)C(=O)N2CCC[C@@H]2C(=O)O[C@@H]1C", "PAMPA (log10 cm/s)": "-7.06"}
{"smiles": "CC(=O)N1CCC[C@H]1C(=O)N(C)[C@@H](CC(C)C)C(=O)N[C@@H]1C(=O)N[C@H](CC(C)C)C(=O)N(C)[C@H](CC(C)C)C(=O)N[C@H](CC(C)C)C(=O)N[C@@H](C)C(=O)N[C@@H](CC(C)C)C(=O)N2CCC[C@H]2C(=O)O[C@@H]1C", "PAMPA (log10 cm/s)": "-6.12"}
{"smiles": "CC(=O)N1CCC[C@@H]1C(=O)N(C)[C@H](CC(C)C)C(=O)N[C@@H]1C(=O)N(C)[C@@H](CC(C)C)C(=O)N[C@H](CC(C)C)C(=O)N(C)[C@@H](CC(C)C)C(=O)N(C)[C@@H](C)C(=O)N[C@H](CC(C)C)C(=O)N2CCC[C@H]2C(=O)O[C@@H]1C", "PAMPA (log10 cm/s)": "-5.44"}
{"smiles": "CC(=O)N1CCC[C@@H]1C(=O)N(C)[C@H](CC(C)C)C(=O)N[C@@H]1C(=O)N(C)[C@@H](CC(C)C)C(=O)N(C)[C@H](CC(C)C)C(=O)N[C@H](CC(C)C)C(=O)N(C)[C@H](C)C(=O)N[C@@H](CC(C)C)C(=O)N2CCC[C@H]2C(=O)O[C@@H]1C", "PAMPA (log10 cm/s)": "-6.45"}
{"smiles": "CC(=O)N1CCC[C@H]1C(=O)N(C)[C@H](CC(C)C)C(=O)N[C@@H]1C(=O)N[C@@H](CC(C)C)C(=O)N[C@@H](CC(C)C)C(=O)N(C)[C@@H](CC(C)C)C(=O)N(C)[C@@H](C)C(=O)N[C@@H](CC(C)C)C(=O)N2CCC[C@@H]2C(=O)O[C@@H]1C", "PAMPA (log10 cm/s)": "-5.69"}
{"smiles": "CC(=O)N1CCC[C@@H]1C(=O)N(C)[C@H](CC(C)C)C(=O)N[C@@H]1C(=O)N[C@@H](CC(C)C)C(=O)N[C@@H](CC(C)C)C(=O)N(C)[C@H](CC(C)C)C(=O)N(C)[C@@H](C)C(=O)N[C@H](CC(C)C)C(=O)N2CCC[C@H]2C(=O)O[C@@H]1C", "PAMPA (log10 cm/s)": "-6.10"}
{"smiles": "CC(=O)N1CCC[C@H]1C(=O)N(C)[C@H](CC(C)C)C(=O)N[C@@H]1C(=O)N[C@@H](CC(C)C)C(=O)N(C)[C@H](CC(C)C)C(=O)N[C@H](CC(C)C)C(=O)N[C@H](C)C(=O)N[C@H](CC(C)C)C(=O)N2CCC[C@@H]2C(=O)O[C@@H]1C", "PAMPA (log10 cm/s)": "-6.68"}
{"smiles": "CC(=O)N1CCC[C@H]1C(=O)N[C@@H]1C(=O)N(C)[C@H](CC(C)C)C(=O)N[C@H](CC(C)C)C(=O)N(C)[C@H](CC(C)C)C(=O)N[C@H](CC(C)C)C(=O)N(C)[C@H](C)C(=O)N[C@@H](CC(C)C)C(=O)N2CCC[C@@H]2C(=O)O[C@@H]1C", "PAMPA (log10 cm/s)": "-5.79"}
{"smiles": "CC(=O)N[C@@H]1C(=O)N2CCC[C@H]2C(=O)N(C)[C@H](CC(C)C)C(=O)N(C)[C@@H](CC(C)C)C(=O)N[C@H](CC(C)C)C(=O)N(C)[C@@H](CC(C)C)C(=O)N[C@H](C)C(=O)N[C@@H](CC(C)C)C(=O)N2CCC[C@@H]2C(=O)O[C@@H]1C", "PAMPA (log10 cm/s)": "-5.54"}
{"smiles": "CC(=O)N1CCC[C@@H]1C(=O)N(C)[C@H](CC(C)C)C(=O)N[C@@H]1C(=O)N[C@H](CC(C)C)C(=O)N[C@@H](CC(C)C)C(=O)N[C@H](CC(C)C)C(=O)N(C)[C@H](C)C(=O)N[C@H](CC(C)C)C(=O)N2CCC[C@@H]2C(=O)O[C@@H]1C", "PAMPA (log10 cm/s)": "-6.13"}
{"smiles": "CC(=O)N1CCC[C@H]1C(=O)N[C@@H]1C(=O)N[C@H](CC(C)C)C(=O)N(C)[C@H](CC(C)C)C(=O)N[C@@H](CC(C)C)C(=O)N(C)[C@@H](CC(C)C)C(=O)N(C)[C@@H](C)C(=O)N[C@@H](CC(C)C)C(=O)N2CCC[C@@H]2C(=O)O[C@@H]1C", "PAMPA (log10 cm/s)": "-5.01"}
{"smiles": "CC(=O)N1CCC[C@H]1C(=O)N[C@@H]1C(=O)N[C@H](CC(C)C)C(=O)N(C)[C@@H](CC(C)C)C(=O)N[C@@H](CC(C)C)C(=O)N(C)[C@H](CC(C)C)C(=O)N[C@@H](C)C(=O)N[C@@H](CC(C)C)C(=O)N2CCC[C@@H]2C(=O)O[C@@H]1C", "PAMPA (log10 cm/s)": "-5.09"}
{"smiles": "CC(=O)N1CCC[C@@H]1C(=O)N(C)[C@H](CC(C)C)C(=O)N[C@@H]1C(=O)N[C@@H](CC(C)C)C(=O)N[C@H](CC(C)C)C(=O)N(C)[C@@H](CC(C)C)C(=O)N(C)[C@@H](C)C(=O)N[C@@H](CC(C)C)C(=O)N2CCC[C@@H]2C(=O)O[C@@H]1C", "PAMPA (log10 cm/s)": "-5.22"}
{"smiles": "CC(=O)N1CCC[C@@H]1C(=O)N(C)[C@@H](CC(C)C)C(=O)N[C@@H]1C(=O)N(C)[C@H](CC(C)C)C(=O)N(C)[C@H](CC(C)C)C(=O)N(C)[C@@H](CC(C)C)C(=O)N(C)[C@@H](C)C(=O)N[C@@H](CC(C)C)C(=O)N2CCC[C@H]2C(=O)O[C@@H]1C", "PAMPA (log10 cm/s)": "-5.27"}
{"smiles": "CC(=O)N1CCC[C@@H]1C(=O)N(C)[C@@H](CC(C)C)C(=O)N[C@@H]1C(=O)N[C@H](CC(C)C)C(=O)N(C)[C@H](CC(C)C)C(=O)N[C@H](CC(C)C)C(=O)N(C)[C@@H](C)C(=O)N[C@@H](CC(C)C)C(=O)N2CCC[C@H]2C(=O)O[C@@H]1C", "PAMPA (log10 cm/s)": "-5.71"}
{"smiles": "CC(=O)N1CCC[C@H]1C(=O)N(C)[C@@H](CC(C)C)C(=O)N[C@@H]1C(=O)N[C@H](CC(C)C)C(=O)N[C@H](CC(C)C)C(=O)N(C)[C@H](CC(C)C)C(=O)N(C)[C@H](C)C(=O)N[C@H](CC(C)C)C(=O)N2CCC[C@@H]2C(=O)O[C@@H]1C", "PAMPA (log10 cm/s)": "-6.26"}

The 2 lowest values of PAMPA among the entries above:

{"smiles": "CC(=O)N1CCC[C@H]1C(=O)N(C)[C@@H](CC(C)C)C(=O)N[C@@H]1C(=O)N[C@@H](CC(C)C)C(=O)N[C@@H](CC(C)C)C(=O)N[C@H](CC(C)C)C(=O)N(C)[C@@H](C)C(=O)N[C@H](CC(C)C)C(=O)N2CCC[C@@H]2C(=O)O[C@@H]1C", "PAMPA (log10 cm/s)": "-7.68"}
{"smiles": "CC(=O)N1CCC[C@@H]1C(=O)N(C)[C@@H](CC(C)C)C(=O)N[C@@H]1C(=O)N(C)[C@@H](CC(C)C)C(=O)N[C@H](CC(C)C)C(=O)N[C@@H](CC(C)C)C(=O)N[C@@H](C)C(=O)N[C@@H](CC(C)C)C(=O)N2CCC[C@@H]2C(=O)O[C@@H]1C", "PAMPA (log10 cm/s)": "-7.06"}